A short description of one series: Selectivity index, ratio of IC50 for MEF cells to IC50 for human MCF7 cells. In kind it is toxicity. The note with it: mouse (MEF cells), MEF cells versus MCF7 cells, read-out: Ratio IC50.
`CCn1c(=O)/c(=C2\Sc3cc(Br)ccc3N2C)s/c1=C\c1scc[n+]1Cc1ccc(C(F)(F)F)o1.[Cl-]`: the selectivity ratio came to 35.

For `CCn1c(=O)/c(=C2\Sc3cc(C)ccc3N2C)s/c1=C\c1scc[n+]1Cc1ccccc1.[Cl-]`, the selectivity ratio is 11.

In the case of `CCc1ccc2c(c1)S/C(=c1/s/c(=C\c3scc[n+]3Cc3ccccc3C(=O)OC)n(CC)c1=O)N2C.[Cl-]`, the selectivity ratio stood at 20.

The next series in a line: Selectivity index, ratio of IC50 for human IMR90 cells to IC50 for human MCF7 cells. In kind it is toxicity. The note with it: IMR90 cells versus MCF7 cells, read-out: Ratio IC50.
`CCn1c(=O)/c(=C2\Sc3cc(Br)ccc3N2C)s/c1=C\c1scc[n+]1Cc1ccc(C(F)(F)F)o1.[Cl-]`: the selectivity ratio was 98.

Regarding `CCn1c(=O)/c(=C2\Sc3cc(C)ccc3N2C)s/c1=C\c1scc[n+]1Cc1ccccc1.[Cl-]`, the selectivity ratio came to 11.

In the case of `CCc1ccc2c(c1)S/C(=c1/s/c(=C\c3scc[n+]3Cc3ccccc3C(=O)OC)n(CC)c1=O)N2C.[Cl-]`, the selectivity ratio worked out at 65.

These data come from ChEMBL document CHEMBL4130633, “Exploration of Benzothiazole Rhodacyanines as Allosteric Inhibitors of Protein-Protein Interactions with Heat Shock Protein 70 (Hsp70)” (J Med Chem, 2018).
